Measured values reported in patent US10155972B2, “Screening method” (IOmet Pharma Ltd., priority 2013, dated 2018).

The chains behind the UniProt entries cited, without tags or fusion partners.
UniProt P14902, whole entry: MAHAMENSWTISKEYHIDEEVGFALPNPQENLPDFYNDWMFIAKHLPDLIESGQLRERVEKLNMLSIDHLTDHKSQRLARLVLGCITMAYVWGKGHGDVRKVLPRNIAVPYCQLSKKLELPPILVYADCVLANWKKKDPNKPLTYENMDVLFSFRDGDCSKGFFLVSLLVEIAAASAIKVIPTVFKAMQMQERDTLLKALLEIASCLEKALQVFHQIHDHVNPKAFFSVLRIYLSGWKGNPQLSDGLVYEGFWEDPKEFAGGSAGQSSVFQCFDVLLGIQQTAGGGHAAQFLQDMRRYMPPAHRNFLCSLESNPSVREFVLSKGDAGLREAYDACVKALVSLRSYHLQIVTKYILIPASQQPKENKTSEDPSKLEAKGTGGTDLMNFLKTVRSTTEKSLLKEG
UniProt P48775, whole entry: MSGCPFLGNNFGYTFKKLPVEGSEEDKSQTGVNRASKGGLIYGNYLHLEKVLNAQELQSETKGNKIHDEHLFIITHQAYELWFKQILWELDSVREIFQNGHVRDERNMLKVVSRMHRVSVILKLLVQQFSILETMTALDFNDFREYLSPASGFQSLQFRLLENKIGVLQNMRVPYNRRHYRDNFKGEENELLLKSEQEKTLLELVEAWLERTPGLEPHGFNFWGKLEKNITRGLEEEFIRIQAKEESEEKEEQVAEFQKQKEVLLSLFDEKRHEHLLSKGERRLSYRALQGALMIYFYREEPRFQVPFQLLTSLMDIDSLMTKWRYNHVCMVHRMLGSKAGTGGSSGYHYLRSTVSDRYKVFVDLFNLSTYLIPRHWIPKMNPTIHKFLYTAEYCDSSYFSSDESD

Experiments:
[1] = tested on: SK-OV-3 ovary adenocarcinoma cells; experiment: SKOV3 kynurenine cell based assay; conditions: SK-OV-3 cells, IFNγ 500 ng/ml, 500 μM L-Trp, 48 h, absorbance at 490 nm
[2] = tested on: A172 human glioblastoma cells; experiment: A172 kynurenine cell based assay; conditions: 500 μM L-Trp, 48 h, absorbance at 490 nm
human IDO = human IDO (Homo sapiens (Human), UniProt P14902); experiment: IDO coupled biochemical assay; conditions: coupled with kynurenine formamidase, 45 μM L-tryptophan, fluorescence 475 nm/530 nm
human TDO = human TDO (Homo sapiens (Human), UniProt P48775); experiment: TDO coupled biochemical assay; conditions: coupled with kynurenine formamidase, 330 μM L-tryptophan, fluorescence 475 nm/530 nm

## NS(=O)(=O)N1CC=C(c2c[nH]c3cc(F)ccc23)CC1
[1]
  SKOV3 Kynurenine cell based assay pIC50: <4.0
[2]
  A172 Kynurenine cell based assay pIC50: 6.8
Human IDO
  hIDO biochemical assay pIC50: <3.9
Human TDO
  hTDO biochemical assay pIC50: 5.2

## CS(=O)(=O)N1CC=C(c2c[nH]c3ccccc23)CC1
[1]
  SKOV3 Kynurenine cell based assay pIC50: <4.0
[2]
  A172 Kynurenine cell based assay pIC50: 5.8
Human IDO
  hIDO biochemical assay pIC50: <3.9
Human TDO
  hTDO biochemical assay pIC50: 5.4
